From article doi:10.1101/2020.06.18.159301 (bioRxiv, 2020)

Molecular target: the molecule itself
Assay: detergent insolubility assay

B1: Recombinant human 2N4R tau, P301L (natural protein)
chain: not shown
B1: binds.
